Pemphigus Ab inh: inhibitors of pemphigus antibody binding to DSG3, primary screen, biochemical, bead-based, flow cytometry, scFv-GFP; Desmoglein-3 (Homo sapiens), P32926; DSG3-coupled beads, scFv-anti-DSG3-GFP binding; hits give low values; binding (percent of control), % at 10 µM; 310,000 compounds, 0.48% hits; AID 588358, 2011;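 active = binding more than 3 SD below its plate's average and above zero; inconclusive = below that plate limit but binding exactly zero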;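 also: hits lower antibody fragment binding to DSG3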
PABP FP inh: PABP poly(A) RNA binding inhibitors, primary screen, biochemical, fluorescence polarization, uHTS; Polyadenylate-binding protein 1 (Homo sapiens), P11940; calls only at 35 µM; 290,000 compounds, 1% hits; AID 2014, 2009;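 also: calls also rest on retests at 20 µM and on dose response follow-up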
UUG fidelity: alters start codon recognition fidelity in yeast | S. cerevisiae UUG-firefly luciferase reporter, luminescence/redox ratio | activity score, % at 18.7 µM | 350,000 compounds, 0.13% hits | AID 602363;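 active = replicate mean at a twofold rise or more, about +100% in these data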;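 note: firefly luciferase made from a UUG start codon reports start codon fidelity; reporter light over untreated wells divided by growth signal over untreated wells; some hits fall short of that in this replicate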
PABP1 MLLE inh: inhibitors of PABP1 MLLE–PAM2 peptide binding, primary screen, biochemical, fluorescence polarization, FITC-PAM2, GST-MLLE; Polyadenylate-binding protein 1 (Homo sapiens), P11940; inhibition, % at 20 µM; 360,000 compounds, 0.36% hits; AID 588489, 2011; in the data active = inhibition above about 35%, passing the limit was not always enough;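 also: plate controls were DMSO wells with GST-MLLE for no effect and wells lacking GST-MLLE protein for full effect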
eIF4H inh: human eIF4H binding inhibitors, primary screen, translation initiation inhibitor project, biochemical, uHTS, fluorescence polarization; Eukaryotic translation initiation factor 4H (Homo sapiens), Q15056; eIF4H fluorescence polarization binding assay; inhibition, % at 35 µM; 290,000 compounds, 0.94% hits; AID 2012, 2009;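 also: calls also rest on retests at 20 µM and on dose response follow-up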
The depositor's hits bear a star; i = inactive; ? = inconclusive; · = no result given; + = active, no number. Only some compounds are listed: those with a hit (about 1.5% of all), similar ones and a draw of the others. Unless noted, no rule for the calls is given here.

The chains behind the UniProt entries cited, without tags or fusion partners.
Desmoglein-3 (Homo sapiens), P32926, UniProt P32926, whole entry, looked up: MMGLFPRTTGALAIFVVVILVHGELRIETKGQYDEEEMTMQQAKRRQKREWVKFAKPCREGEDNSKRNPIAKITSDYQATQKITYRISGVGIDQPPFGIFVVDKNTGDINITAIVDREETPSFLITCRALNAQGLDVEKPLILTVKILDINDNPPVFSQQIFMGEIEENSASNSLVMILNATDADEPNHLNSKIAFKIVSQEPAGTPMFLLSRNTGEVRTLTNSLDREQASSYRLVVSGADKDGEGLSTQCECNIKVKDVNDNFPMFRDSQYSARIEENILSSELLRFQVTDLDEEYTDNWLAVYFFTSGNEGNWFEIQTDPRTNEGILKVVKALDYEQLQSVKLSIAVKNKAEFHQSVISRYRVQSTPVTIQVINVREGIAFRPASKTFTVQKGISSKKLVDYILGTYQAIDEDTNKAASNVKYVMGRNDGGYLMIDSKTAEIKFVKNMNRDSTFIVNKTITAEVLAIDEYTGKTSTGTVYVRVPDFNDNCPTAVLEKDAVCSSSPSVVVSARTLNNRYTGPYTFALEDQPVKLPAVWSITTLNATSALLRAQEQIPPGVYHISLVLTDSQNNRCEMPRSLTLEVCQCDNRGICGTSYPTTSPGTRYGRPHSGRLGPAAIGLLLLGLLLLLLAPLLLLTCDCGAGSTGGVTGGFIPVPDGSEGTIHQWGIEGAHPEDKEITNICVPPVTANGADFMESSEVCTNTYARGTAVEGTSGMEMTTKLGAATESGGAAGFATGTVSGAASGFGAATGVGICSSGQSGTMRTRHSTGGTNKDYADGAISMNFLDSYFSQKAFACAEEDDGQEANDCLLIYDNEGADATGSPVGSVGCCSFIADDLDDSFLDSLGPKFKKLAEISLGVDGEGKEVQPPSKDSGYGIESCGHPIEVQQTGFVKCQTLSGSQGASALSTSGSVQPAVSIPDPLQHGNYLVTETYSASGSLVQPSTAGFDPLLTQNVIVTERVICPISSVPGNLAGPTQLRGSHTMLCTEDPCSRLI
Polyadenylate-binding protein 1 (Homo sapiens), P11940, UniProt P11940, whole entry, looked up: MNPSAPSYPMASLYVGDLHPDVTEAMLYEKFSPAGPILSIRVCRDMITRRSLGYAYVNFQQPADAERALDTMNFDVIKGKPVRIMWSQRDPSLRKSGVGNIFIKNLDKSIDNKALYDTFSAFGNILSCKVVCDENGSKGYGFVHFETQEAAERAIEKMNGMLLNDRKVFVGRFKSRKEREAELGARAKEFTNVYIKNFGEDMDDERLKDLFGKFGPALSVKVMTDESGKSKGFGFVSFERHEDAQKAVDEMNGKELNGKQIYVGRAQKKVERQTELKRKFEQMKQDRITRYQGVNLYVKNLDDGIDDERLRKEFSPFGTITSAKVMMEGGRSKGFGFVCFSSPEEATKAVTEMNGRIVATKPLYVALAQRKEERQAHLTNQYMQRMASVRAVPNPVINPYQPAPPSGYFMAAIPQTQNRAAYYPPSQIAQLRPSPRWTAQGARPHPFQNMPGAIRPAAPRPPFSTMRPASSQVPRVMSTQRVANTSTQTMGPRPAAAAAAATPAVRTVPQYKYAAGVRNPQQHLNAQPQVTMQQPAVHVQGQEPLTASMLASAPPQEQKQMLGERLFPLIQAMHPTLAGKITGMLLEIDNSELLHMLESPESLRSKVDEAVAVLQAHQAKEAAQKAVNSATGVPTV

no.	Structure	Pemphigus Ab inh	PABP FP inh	UUG fidelity
1	O=C(CS(=O)(=O)c1ccccc1)Nc1ccc(Br)cn1	59*	i	9
2	C[C@@H]1CN([C@@H](C)CO)C(=O)c2cccc(NC(=O)c3cnccn3)c2O[C@H]1CN(C)Cc1ccc(C(=O)Nc2ccccc2N)cc1	·	·	-2
3	C[C@H](CO)N1C[C@H](C)[C@H](CN(C)C(=O)Nc2ccccc2)Oc2ccc(NS(C)(=O)=O)cc2C1=O	·	·	-19
4	O=c1c2ccccc2sn1-c1ccc(Cl)cc1Cl	61*	·	-42
5	O=c1c2ccccc2ncn1-c1ccc(Cl)cc1Cl	106	i	-5
6	Brc1cccc(C2Nc3cccc4cccc(c34)N2)c1	96	i	2
7	c1ccc(C2Nc3cccc4cccc(c34)N2)cc1	115	+	-24
8	Brc1ccc(C2Nc3cccc4cccc(c34)N2)o1	103	+	-11
9	Clc1cccc(C2Nc3cccc4cccc(c34)N2)c1	120	+	-23
10	Oc1ccccc1C1Nc2cccc3cccc(c23)N1	97	+	-6

no.	PABP1 MLLE inh	eIF4H inh
1	-1	-7
2	·	·
3	·	·
4	32	·
5	2	-12
6	14	46
7	13	86*
8	36	99*
9	9	53*
10	0	95*

Brought forward from above: 3 compounds, followed by the next part.
no.	Structure	Pemphigus Ab inh	PABP FP inh	UUG fidelity
8	Brc1ccc(C2Nc3cccc4cccc(c34)N2)o1	103	+	-11
9	Clc1cccc(C2Nc3cccc4cccc(c34)N2)c1	120	+	-23
10	Oc1ccccc1C1Nc2cccc3cccc(c23)N1	97	+	-6
11	COc1ccccc1C1Nc2cccc3cccc(c23)N1	97	?	-13
12	COc1ccc(S(=O)(=O)N[C@H]2CC[C@@H](CC(=O)N3CCN(c4ccccc4)CC3)O[C@@H]2CO)cc1	·	·	9
13	c1csc(C2Nc3cccc4cccc(c34)N2)c1	79	?	4
14	O=[N+]([O-])c1ccc(Cl)c(C2Nc3cccc4cccc(c34)N2)c1	·	+	-9
15	Clc1ccc(C2Nc3cccc4cccc(c34)N2)cc1Cl	86	+	2
16	O=[N+]([O-])c1ccccc1C1Nc2cccc3cccc(c23)N1	107	i	-17
17	Cc1ccc(S(=O)(=O)N(C)C[C@@H]2Oc3ccc(NC(=O)Cc4ccccc4)cc3C(=O)N([C@H](C)CO)C[C@@H]2C)cc1	·	·	-7
18	O=C(NC[C@H]1[C@@H](c2ccccc2)[C@@H](CO)N1Cc1ccccn1)C1CCC1	·	·	-37
19	C[C@H]1CN([C@@H](C)CO)C(=O)c2cc(NC(=O)Nc3ccccc3)ccc2O[C@@H]1CN(C)C(=O)Nc1ccc2c(c1)OCO2	·	·	-2
20	COc1ccc(NC(=O)Nc2ccc3c(c2)CC(=O)N([C@H](C)CO)C[C@H](C)[C@H](CN(C)C(=O)Nc2ccc(OC)cc2)O3)cc1	·	·	3

no.	PABP1 MLLE inh	eIF4H inh
8	36	99*
9	9	53*
10	0	95*
11	13	?
12	·	·
13	41*	?
14	22	97*
15	6	55*
16	22	53
17	·	·
18	·	·
19	·	·
20	·	·

Next compounds follow:
no.	Structure	Pemphigus Ab inh	PABP FP inh	UUG fidelity
21	CC(C)NC(=O)N(C)C[C@@H]1Oc2ccc(NC(=O)Cc3ccccc3)cc2C(=O)N([C@@H](C)CO)C[C@@H]1C	·	·	0
22	Cc1c(NC(=O)CN2c3ccccc3CC2C)c(=O)n(-c2ccccc2)n1C (configuration not stated)	103*	i	·
23	Cc1c(NC(=O)CN2CC(C)OC(C)C2)c(=O)n(-c2ccccc2)n1C (configuration not stated)	96	i	6
24	C[C@@H](NC(=O)C[C@@H]1CC[C@@H](NC(=O)C2CCC2)[C@H](CO)O1)c1ccccc1	·	·	-15
25	c1ccc2c(c1)nc1n2C2(N3CCOCC3)CCCC2C1N1CCOCC1 (configuration not stated)	98	+	-21
26	Cc1cc2c(=O)oc(-c3ccccc3Br)nc2s1	133	i	·
27	CCc1cc2c(=O)oc(-c3ccccc3F)nc2s1	79*	i	-31
28	CC(=O)NC(Cc1ccccc1)C(=O)OCC(=O)c1ccc(Cl)cc1 (configuration not stated)	·	+	·
29	C[C@@H]1CN([C@@H](C)CO)C(=O)Cc2cc(NC(=O)Cc3cn(C)c4ccccc34)ccc2O[C@H]1CN(C)C(=O)Nc1ccc2c(c1)OCO2	·	·	0
30	CCOc1ccc(NC(=O)CN(c2ccc([N+](=O)[O-])cc2)S(=O)(=O)c2ccccc2)cc1	96	i	·

no.	PABP1 MLLE inh	eIF4H inh
21	·	·
22	-6	-3
23	-11	0
24	·	·
25	9	57*
26	6	-1
27	2	-8
28	-12	active
29	·	·
30	-5	3
